Experimental data as given in US20050163773A1, “Methods and pharmaceutical compositions for dopaminergic modulation of t-cell adhesion and activity” (priority 2001, published 2005).

Test system: Jurkat T-cell leukemia cells

Structure (SMILES): NCCc1ccc(O)c(O)c1 [Dopamine]
- cellular death in Jurkat T-cell leukemia cells: induces cellular death
